The record followed here is patent publication US8822451B2, “Modulators of ATP-binding cassette transporters” (Vertex Pharmaceuticals Incorporated, priority 2005, dated 2014).

In this assay the target is […]F508-CFTR (Homo sapiens, UniProt P13569, DEL508-508). The experiment in a line: Assay results of Table 3: ΔF508-CFTR modulation, membrane potential optical assay (assay format not stated). To be noted: NIH3T3 mouse fibroblasts stably expressing […]F508-CFTR (optical assays). The text has this:
A. Membrane Potential Optical Methods for Assaying […]F508-CFTR Modulation Properties of Compounds
The optical membrane potential assay utilized voltage-sensitive FRET sensors described by Gonzalez and Tsien (See, Gonzalez, J. E. and R. Y. Tsien (1995) “Voltage sensing by fluorescence resonance energy transfer in single cells” Biophys J 69(4): 1272-80, and Gonzalez, J. E. and R. Y. Tsien (1997) “Improved indicators of cell membrane potential that use fluorescence resonance energy transfer” Chem Biol 4(4): 269-77) in combination with instrumentation for measuring fluorescence changes such as the Voltage/Ion Probe Reader (VIPR) (See, Gonzalez, J. E., K. Oades, et al. (1999) “Cell-based assays and instrumentation for screening ion-channel targets” Drug Discov Today 4(9): 431-439).
These voltage sensitive assays are based on the change in fluorescence resonant energy transfer (FRET) between the membrane-soluble, voltage-sensitive dye, DiSBAC2(3), and a fluorescent phospholipid, CC2-DMPE, which is attached to the outer leaflet of the plasma membrane and acts as a FRET donor. […] The changes in fluorescence emission were monitored using VIPR™ II, which is an integrated liquid handler and fluorescent detector designed to conduct cell-based screens in 96- or 384-well microtiter plates. […]

SMILES strings stand for the structures. A value given as a limit tells only on which side of the number the result lay.

The term EC50 denotes the concentration giving half of the maximal effect.

As for `CC(C)Nc1nc(C(N)=O)cc(-c2ccccc2)n1`, the Efficacy result (efficacy range) is “++ (++ corresponds to Efficacy between 100 and 50)”. In addition, the concentration for a half-maximal effect (EC50) (potency range) is more than 5 µM.
